Series [1] relates to NC(=O)CC[C@H](N)C(=O)O. The experiment in a line: purified protein. To be noted: pH 8.0, 30 °C, 11 mM MgCl2, co-substrate ATP.
Series [2] relates to Nc1ncnc2c1ncn2[C@@H]1O[C@H](COP(=O)(O)OP(=O)(O)OP(=O)(O)O)[C@@H](O)[C@H]1O. The experiment in a line: purified protein. To be noted: pH 8.0, 30 °C, 11 mM MgCl2, co-substrate L-glutamine.

For orientation: kcat means the maximal rate divided by the concentration of active sites. By Km is commonly meant the substrate concentration at which the rate is half of its maximum.

For “Cj1418 (L-glutamine kinase) (Campylobacter jejuni subsp. jejuni NCTC 11168 = ATCC 700819)”, the turnover number (kcat) in series [1] stood at 2.5 ± 0.3 s⁻¹. Further, in series [2], the Km is 340 ± 70 µM and the kcat was 2.5 ± 0.3 s⁻¹.

The values are drawn from paper PMC5629633.
